## Reported melting point values for industrial, environmental and drug-like chemicals

From the experimental data distributed with OPERA 2.9.

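OPERA's authors assembled the values from existing databases and did not measure them anew. One number stands for a compound and property, with no spread given. Method and conditions are not stated for these values. Where a salt, mixture or single isomer is drawn, the source does not say that exactly this form was tested. Some upstream entries may be estimates or bounds without being marked so.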

Melting points are in °C.
"via" names the databases from which the curators took the value.

| compound | melting point (°C) | via |
|---|---|---|
| O=C(Cl)OCCOCCOC(=O)Cl | 6.6 | eChemPortal |
| O=C(CCl)c1cc([N+](=O)[O-])c[nH]1 | 200 | OCHEM |
| COc1ccc(CC(N)c2ccc(OC)cc2)cc1.Cl (stereo unspecified) | 176 | OCHEM |
| COc1ccc2[nH]cc(C3=CCNCC3)c2c1 | 182 | OCHEM |
| Clc1ccc(-c2cc(Cl)c(Cl)cc2Cl)cc1Cl | 109 | QSARDB |
| CCCCCCCCCC1(CC)C(=O)NC(=O)NC1=O | 113 | OCHEM |
| CN(C(=O)C[N+](C)(C)C)C(=O)Oc1cccc2c1OC(C)(C)C2.[Cl-] | 200 | OCHEM |
| Clc1ccc(Oc2ccc(Cl)c(Cl)c2)cc1Cl | 70 | QSARDB |
| O=C([O-])CNCO.[Na+] | 193 | eChemPortal |
| Cc1ccc2c(c1)Sc1ccc(C)cc1S2 | 123 | OCHEM |
| CC(C)Cn1cc(C(=O)O)c2ccccc21 | 152 | OCHEM |
| CC1=C[C@H]2[C@@]3(O)[C@H](C)[C@@H](O)[C@]4(O)[C@H]([C@@H]3C=C(CO)C[C@]2(O)C1=O)C4(C)C | 250.5 | PubChem |
| CNC(=O)Oc1ccccc1Cl | 90.5 | PubChem |
| CCC(=O)C(c1ccccc1)(c1ccccc1)C(C)CN(C)C.Cl (stereo unspecified) | 232 | OCHEM |
| COC(=O)[C@@H]1C[C@H](OC(C)=O)C(=O)[C@H]2[C@@]1(C)CC[C@H]1C(=O)O[C@H](c3ccoc3)C[C@]21C | 239 | PubChem |
| Clc1cc(Cl)c(-c2ccccc2)c(Cl)c1 | 63 | QSARDB |
| CCCCCOC(=O)Cc1ccccc1 | -8.09 | eChemPortal |
| O=C(CCl)Nc1nncs1 | 234 | OCHEM |
| CCCCCCCCC1(CC)C(=O)NC(=O)NC1=O | 113 | OCHEM |
| Fc1ccc(CBr)c(Br)c1 | 52 | OCHEM |
| Cc1nc(NC(=O)CCl)sc1C | 145 | OCHEM |
| O=Nc1ccc(O)cc1 | 133 | eChemPortal |
| Clc1ccc(-c2ccc(Cl)c(Cl)c2)c(Cl)c1 | 128 | QSARDB |
| O=C([O-])C(F)(F)C(F)F.[Na+] | 166 | OCHEM |
| Clc1ccc(-c2cc(Cl)c(Cl)c(Cl)c2Cl)cc1Cl | 129 | QSARDB |
| CC(=O)OC1[C@H]2CC[C@@H]3[C@]1(C[C@@H](O)[C@@]1(O)[C@@H](C[C@H](O)C1(C)C)[C@]3(C)O)C[C@@]2(C)O (stereo partly specified) | 259 | PubChem |
| CC(C=O)Cc1ccc2c(c1)OCO2 (stereo unspecified) | -20.07 | eChemPortal |
| C[N@@](CCCCCC(O)=O)S(=O)(=O)C1C=CC=CC=1 | 56 | eChemPortal |
| Cn1cnnc1C1CCNCC1 | 182 | OCHEM |
| COc1ccc(C(C)(C)C)cc1CN[C@H]1C2CCN(CC2)[C@H]1C(c1ccccc1)c1ccccc1 | 131.9 | eChemPortal |
| Oc1cccc2nc3ccccc3nc12 | 158 | OCHEM |
| CC(C)(C)NC(=O)NC(=O)CCl | 110 | OCHEM |
| PCCC(Cl)Cl | 135.5 | OCHEM |
| Brc1ccc(Oc2cc(Br)ccc2Br)c(Br)c1 | 20 | OCHEM |
| COc1ccc(OC)c(CBr)c1 | 78 | OCHEM |
| CCCCCO[N+](=O)[O-] | -123.3 | PubChem |
| CCOP(=O)(OCC)OP(=O)(OCC)OCC | 0 | PubChem |
| C/C=C1/C[C@@H](C)[C@](O)(CO)C(=O)OCC2=CC[N+]3([O-])CC[C@@H](OC1=O)[C@@H]23 (some centres not stated) | 138 | PubChem |
| COc1nc(C)nc(NC(=O)NS(=O)(=O)c2ccccc2CCC(F)(F)F)n1 | 155 | PubChem |
| CC(C)(C)CC(C)(C)c1ccc(Nc2ccc(C(C)(C)CC(C)(C)C)cc2)cc1 | 95.7 | eChemPortal |
| Clc1ccc(Cl)c(-c2c(Cl)c(Cl)c(Cl)c(Cl)c2Cl)c1 | 147 | QSARDB |
| Clc1ccc(-c2ccc(Cl)c(Cl)c2Cl)c(Cl)c1Cl | 152 | QSARDB |
| Clc1ccc(-c2cc(Cl)ccc2Cl)c(Cl)c1 | 64 | QSARDB |
| C=CCC1(CC)C(=O)NC(=O)NC1=O | 161 | OCHEM |
| CCOP(=O)(OCC)C(C)NC(=O)N(CCCl)N=O (stereo unspecified) | 85 | PubChem |
| CCCCCC[C@H]1C(=O)O[C@H](C)[C@H](NC(=O)c2cccc(NC=O)c2O)C(=O)O[C@@H](C)[C@@H]1OC(=O)CC(C)C | 150 | OCHEM |
| Cc1csc(NC(=O)CCl)n1 | 128 | OCHEM |
| COc1nn(C(=O)[N-]S(=O)(=O)c2ccccc2OC(F)(F)F)c(=O)n1C.[Na+] | 200 | PubChem |
| NCCc1nc2ccccc2s1 | 48 | OCHEM |
| CC(C)(C)N(NC(=O)c1ccc(Cl)cc1)C(=O)c1ccccc1 | 199.2 | OCHEM, PubChem |
| O=C1NC(=O)C2(CCC2)C(=O)N1 | 257 | OCHEM |
| c1ccc2sc(C3CCNCC3)nc2c1 | 128 | OCHEM |
| CC(C)NC(=O)C(C)Cl (stereo unspecified) | 90 | OCHEM |
| COC1=C[C@]23CCN(C)[C@H](Cc4ccc(OC)c(O)c42)C3=CC1=O | 197.5 | PubChem |

Excerpt, the opening 9 entries:

{"smiles": "O=C(Cl)OCCOCCOC(=O)Cl", "melting point (°C)": "6.6", "via": "eChemPortal"}
{"smiles": "O=C(CCl)c1cc([N+](=O)[O-])c[nH]1", "melting point (°C)": "200", "via": "OCHEM"}
{"smiles": "COc1ccc(CC(N)c2ccc(OC)cc2)cc1.Cl", "stereo": "stereo unspecified", "melting point (°C)": "176", "via": "OCHEM"}
{"smiles": "COc1ccc2[nH]cc(C3=CCNCC3)c2c1", "melting point (°C)": "182", "via": "OCHEM"}
{"smiles": "Clc1ccc(-c2cc(Cl)c(Cl)cc2Cl)cc1Cl", "melting point (°C)": "109", "via": "QSARDB"}
{"smiles": "CCCCCCCCCC1(CC)C(=O)NC(=O)NC1=O", "melting point (°C)": "113", "via": "OCHEM"}
{"smiles": "CN(C(=O)C[N+](C)(C)C)C(=O)Oc1cccc2c1OC(C)(C)C2.[Cl-]", "melting point (°C)": "200", "via": "OCHEM"}
{"smiles": "Clc1ccc(Oc2ccc(Cl)c(Cl)c2)cc1Cl", "melting point (°C)": "70", "via": "QSARDB"}
{"smiles": "O=C([O-])CNCO.[Na+]", "melting point (°C)": "193", "via": "eChemPortal"}